The text below walks through data of paper PMC9068900, “Pharmacology of Kappa Opioid Receptors: Novel Assays and Ligands” (Frontiers in Pharmacology, 2022).

By UniProt entry, the sequences of proteins in these tests, tags left out.
UniProt P35372, whole entry: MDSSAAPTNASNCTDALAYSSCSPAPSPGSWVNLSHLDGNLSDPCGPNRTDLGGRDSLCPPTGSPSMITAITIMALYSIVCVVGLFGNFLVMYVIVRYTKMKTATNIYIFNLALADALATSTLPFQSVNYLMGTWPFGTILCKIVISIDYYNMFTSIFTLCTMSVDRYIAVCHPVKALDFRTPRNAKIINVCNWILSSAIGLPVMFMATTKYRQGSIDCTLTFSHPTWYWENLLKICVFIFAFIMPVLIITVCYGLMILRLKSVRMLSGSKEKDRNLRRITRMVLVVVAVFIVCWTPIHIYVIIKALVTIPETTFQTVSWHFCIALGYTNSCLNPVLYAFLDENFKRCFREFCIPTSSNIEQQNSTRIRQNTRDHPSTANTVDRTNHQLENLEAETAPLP

For the test, the target named is T1, human mu opioid receptor (Homo sapiens, UniProt P35372).
T1 construct: expressed in transfected cells
Put plainly: Calcium mobilization in CHO cells co-expressing the mu receptor and Gαqi5. The format is cell-based.

As for `C[C@@H](NC(=O)[C@@H](N)Cc1ccc(O)cc1)C(=O)N[C@@H](Cc1ccccc1)C(=O)NCC(=O)N[C@@H](Cc1ccc(O)cc1)C(=O)N1CCC[C@H]1C(=O)N[C@@H](CO)C(N)=O` [Dermorphin], the EC50 (CHO cells, mu + Gαqi5) is 0.0269 µM.

As for `CC[C@H](C)[C@H](NC(=O)[C@H](CCCNC(=N)N)NC(=O)[C@H](CCCNC(=N)N)NC(=O)[C@H](CC(C)C)NC(=O)[C@H](Cc1ccccc1)NC(=O)CNC(=O)CNC(=O)[C@@H](N)Cc1ccc(O)cc1)C(=O)N[C@@H](CCCNC(=N)N)C(=O)N1CCC[C@H]1C(=O)N[C@@H](CCCCN)C(=O)N[C@@H](CC(C)C)C(=O)N[C@@H](CCCCN)C(=O)N[C@@H](Cc1c[nH]c2ccccc12)C(=O)N[C@@H](CC(=O)O)C(=O)N[C@@H](CC(N)=O)C(=O)N[C@@H](CCC(N)=O)C(=O)O` [Dyn A, dynorphin A], the Stimulation (only at the highest concentration tested) was determined as 154 % over the baseline.
